# According to article PMC11003968 (Scientific Reports, 2024):
# B1: Human hemoglobin A (oxyhemoglobin) (complex)
# chain 1: not shown
# chain 2: not shown
# Target: Staphylococcus aureus IsdB hemophore, wild type (Staphylococcus aureus, UniProt Q2FZF0 41-613)
# Experiment: ELISA
# Settings: both partners purified
binder,measurement,value
B1,Kd,39 ± 4 nM
